Measured values from US12251411B2, “Methods of treating endometrial cancer using hemp extract” (Ecofibre USA Inc., priority 2021, dated 2025).

Tested on: patient derived organoids
Test: Calculated IC50 of various agents on organoids derived from the chemoresistant patient (PD3D cell culture)
Format: cell-based, human
Conditions: organoids of the chemoresistant stage IV patient
Description: The IC50 values were calculated from such tests. This value indicates the dosage at which 50% of the organoids were killed due to treatment.

Substance: Kadcyla: agent tested on patient derived organoids (Table 5)
- Calculated IC50 PD3D Cell Culture: Not Reached

Substance: Cetuximab
- Calculated IC50 PD3D Cell Culture: Not Reached
